Assay results reported in US12577232B2, “N-heterocycle substituted tryptamine derivatives and methods of using” (ENVERIC B[…] INC., priority 2024, dated 2026).

Protein sequences, listed by entry. Tags and fused reporters are not part of them.
UniProt P28223, whole entry: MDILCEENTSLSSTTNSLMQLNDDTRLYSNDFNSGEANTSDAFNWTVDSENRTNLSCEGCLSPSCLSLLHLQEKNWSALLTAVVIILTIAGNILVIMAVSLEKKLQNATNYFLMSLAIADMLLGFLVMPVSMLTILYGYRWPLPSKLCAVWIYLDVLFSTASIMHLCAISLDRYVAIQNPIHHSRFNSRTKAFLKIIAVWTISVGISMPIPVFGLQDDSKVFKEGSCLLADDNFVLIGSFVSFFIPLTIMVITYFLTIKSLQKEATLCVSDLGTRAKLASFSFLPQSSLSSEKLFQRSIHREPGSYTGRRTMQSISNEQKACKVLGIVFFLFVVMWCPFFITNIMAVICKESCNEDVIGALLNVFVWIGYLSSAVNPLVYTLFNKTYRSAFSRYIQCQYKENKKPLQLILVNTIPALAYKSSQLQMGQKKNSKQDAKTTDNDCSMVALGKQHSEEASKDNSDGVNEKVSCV

Target: T1, 5-HT2A receptor (Homo sapiens, UniProt P28223)
T1 construct: purchased PerkinElmer ES-313-M400UA
Assay: 5-HT2A receptor radioligand competition assay (SPA, [3H]ketanserin)
Format: binding
Conditions: 1 nM [3H]ketanserin; membranes containing 5-HT2A

5-bromo-dimethyltryptamine [Compound 5-Br-DMT, reference compound]
Ki: 360 nM
